This is an account of results in US10227346B2, “Methyl- and trifluoromethyl-substituted pyrrolopyridine modulators of RORC2 and methods of use therof” (Pfizer Inc., priority 2014, dated 2019).

The subject of this experiment is IL-17 production from human Th17 cells. Put plainly: IL-17 production from human Th17 cells.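 Also: purified human CD4+ T cells activated with anti-CD3 plus anti-CD28 and a Th17-inducing cytokine cocktail, with compound at serial concentrations versus no compound.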 The class given is cell-based. The conditions noted are these: CD4+ T, 144 h.

Turning to `CC(C)C(=O)N1CC[C@@H](c2cn(C)c3ncc(NC(=O)c4cccc(C#N)c4)c(C(F)(F)F)c23)CC1(C)C` [Example 66, (R)-3-cyano-N-(3-(1-isobutyryl-2,2-dimethylpiperidin-4-yl)-1-methyl-4-(trifluoromethyl)-1H-pyrrolo[2,3-b]pyridin-5-yl)benzamide], the 50% inhibitory concentration (IC50) came to 0.0134 µM.

Turning to `COc1ccc(C(=O)Nc2cnc3c(c([C@@H]4CCN(C(=O)C(C)C)C(C)(C)C4)cn3C)c2C(F)(F)F)cc1C#N` [Example 67, (R)-3-cyano-N-(3-(1-isobutyryl-2,2-dimethylpiperidin-4-yl)-1-methyl-4-(trifluoromethyl)-1H-pyrrolo[2,3-b]pyridin-5-yl)-4-methoxybenzamide], half-maximal inhibition (IC50) required 0.0042 µM.

In turn, `Cc1c(NC(=O)c2cccc(C#N)c2)cnc2c1c([C@@H]1CCN(C(=O)[C@H](C)C(C)(C)C)C(C)(C)C1)cn2C` [Example 68, 3-cyano-N-(3-((R)-2,2-dimethyl-1-((R)-2,3,3-trimethylbutanoyl)piperidin-4-yl)-1,4-dimethyl-1H-pyrrolo[2,3-b]pyridin-5-yl)benzamide] returned an IC50 of 0.0053 µM.

Take `COc1ccc(C(=O)Nc2cnc3c(c([C@@H]4CCN(C(=O)[C@H](C)C(C)(C)C)C(C)(C)C4)cn3C)c2C)cc1C#N` [Example 69, 3-cyano-N-(3-((R)-2,2-dimethyl-1-((R)-2,3,3-trimethylbutanoyl)piperidin-4-yl)-1,4-dimethyl-1H-pyrrolo[2,3-b]pyridin-5-yl)-4-methoxybenzamide]: the midpoint of inhibition, the IC50, lay at 0.0114 µM.

Take `COc1ccc(C(=O)Nc2cnc3c(c([C@@H]4CCN(C(=O)C(C)C)C(C)(C)C4)cn3C)c2C)cc1C#N` [Example 70, (R)-3-cyano-N-(3-(1-isobutyryl-2,2-dimethylpiperidin-4-yl)-1,4-dimethyl-1H-pyrrolo[2,3-b]pyridin-5-yl)-4-methoxybenzamide]: the IC50 came out at 0.0035 µM.

As to `Cc1c(NC(=O)c2cccc(C#N)c2)cnc2c1c([C@@H]1CCN(C(=O)C3CCCC3)C(C)(C)C1)cn2C` [Example 71, (R)-3-cyano-N-(3-(1-(cyclopentanecarbonyl)-2,2-dimethylpiperidin-4-yl)-1,4-dimethyl-1H-pyrrolo[2,3-b]pyridin-5-yl)benzamide], half-maximal inhibition (IC50) required 0.0048 µM.

With `Cc1c(NC(=O)c2cccc(C#N)c2)cnc2c1c([C@@H]1CCN(C(=O)C(C)C)C(C)(C)C1)cn2C` [Example 72, (R)-3-cyano-N-(3-(1-isobutyryl-2,2-dimethylpiperidin-4-yl)-1,4-dimethyl-1H-pyrrolo[2,3-b]pyridin-5-yl)benzamide], 0.0048 µM corresponded to half-maximal inhibition (IC50).

`COc1ccc(C(=O)Nc2cnc3c(c(C4[C@@H]5CC[C@H]4CN(C(=O)C(C)C)C5)cn3C)c2C(F)(F)F)cc1C#N` (stereo partly drawn) [Example 78, 3-cyano-N-(3-((1R,5S,8r)-3-isobutyryl-3-azabicyclo[3.2.1]octan-8-yl)-1-methyl-4-(trifluoromethyl)-1H-pyrrolo[2,3-b]pyridin-5-yl)-4-methoxybenzamide] showed an IC50 of 0.004 µM.

With `CC(C)C(=O)N1CC[C@@H](c2cn(C)c3ncc(NC(=O)c4cccc(C#N)c4)c(C(F)(F)F)c23)[C@@H](C)C1` [Example 80, 3-cyano-N-(3-((3R,4R)-1-isobutyryl-3-methylpiperidin-4-yl)-1-methyl-4-(trifluoromethyl)-1H-pyrrolo[2,3-b]pyridin-5-yl)benzamide], the midpoint of inhibition, the IC50, lay at 0.0093 µM.

The compound `C[C@H]1CN(C(=O)C2CCCC2)CC[C@H]1c1cn(C)c2ncc(NC(=O)c3cccc(C#N)c3)c(C(F)(F)F)c12` [Example 81, 3-cyano-N-(3-((3R,4R)-1-(cyclopentane-carbonyl)-3-methylpiperidin-4-yl)-1-methyl-4-(trifluoro-methyl)-1H-pyrrolo[2,3-b]pyridin-5-yl)benzamide] displayed an IC50 of 0.0033 µM.

`Cc1c(NC(=O)c2cccc(C#N)c2)cnc2c1c([C@@H]1CCN(C(=O)CC3CC3)C[C@@H]1C)cn2C` [Example 83, 3-cyano-N-(3-((3R,4R)-1-(2-cyclopropylacetyl)-3-methylpiperidin-4-yl)-1,4-dimethyl-1H-pyrrolo[2,3-b]pyridin-5-yl)benzamide] displayed an IC50 of 0.0705 µM.

In turn, `Cc1c(NC(=O)c2cccc(C#N)c2)cnc2c1c([C@@H]1CCN(C(=O)C3CCCC3)C[C@@H]1C)cn2C` [Example 84, 3-cyano-N-(3-((3R,4R)-1-(cyclopentanecarbonyl)-3-methylpiperidin-4-yl)-1,4-dimethyl-1 H-pyrrolo[2,3-b]pyridin-5-yl)benzamide] registered an IC50 of 0.006 µM.

`Cc1c(NC(=O)c2cccc(C#N)c2)cnc2c1c([C@@H]1CCN(C(=O)C(C)C)C[C@@H]1C)cn2C` [Example 85, 3-cyano-N-(3-((3R,4R)-1-isobutyryl-3-methylpiperidin-4-yl)-1,4-dimethyl-1H-pyrrolo[2,3-b]pyridin-5-yl)benzamide]: the IC50 was 0.0155 µM.

Regarding `COCCOc1ccc(C(=O)Nc2cnc3c(c([C@@H]4CCN(C(=O)C5CCCC5)C[C@@H]4C)cn3C)c2C)cc1C#N` [Example 87, 3-cyano-N-(3-((3R,4R)-1-(cyclopentanecarbonyl)-3-methylpiperidin-4-yl)-1,4-dimethyl-1H-pyrrolo[2,3-b]pyridin-5-yl)-4-(2-methoxyethoxy)benzamide], the midpoint of inhibition, the IC50, lay at 0.0126 µM.

`Cc1c(NC(=O)c2cccc(C#N)c2)cnc2c1c([C@@H]1CCN(C(=O)[C@@H](C)C(F)(F)F)C[C@@H]1C)cn2C` [Example 88, 3-cyano-N-(1,4-dimethyl-3-((3R,4R)-3-methyl-1-((R)-3,3,3-trifluoro-2-methylpropanoyl)piperidin-4-yl)-1H-pyrrolo[2,3-b]pyridin-5-yl)benzamide] yielded an IC50 of 0.019 µM.

As for `Cc1c(NC(=O)c2cccc(C#N)c2)cnc2c1c([C@@H]1CCN(C(=O)[C@H](C)C(F)(F)F)C[C@@H]1C)cn2C` [Example 89, 3-cyano-N-(1,4-dimethyl-3-((3R,4R)-3-methyl-1-((S)-3,3,3-trifluoro-2-methylpropanoyl)piperidin-4-yl)-1H-pyrrolo[2,3-b]pyridin-5-yl)benzamide], the IC50 was 0.0166 µM.

Compound `Cc1c(NC(=O)c2cccc(C#N)c2)cnc2c1c([C@@H]1CCN(C(=O)[C@H](C)C(F)(F)F)[C@@H](C)C1)cn2C` [Example 91, 3-cyano-N-(1,4-dimethyl-3-((2S,4R)-2-methyl-1-((S)-3,3,3-trifluoro-2-methylpropanoyl)-piperidin-4-yl)-1H-pyrrolo[2,3-b]pyridin-5-yl)benzamide] registered an IC50 of 0.0162 µM.

In turn, `Cc1c(NC(=O)c2cccc(C#N)c2)cnc2c1c([C@@H]1CCN(C(=O)[C@@H](C)C(F)(F)F)[C@@H](C)C1)cn2C` [Example 92, 3-cyano-N-(1,4-dimethyl-3-((2S,4R)-2-methyl-1-((R)-3,3,3-trifluoro-2-methylpropanoyl)piperidin-4-yl)-1H-pyrrolo[2,3-b]pyridin-5-yl)benzamide] gave an IC50 of 0.0223 µM.

With `COc1ccc(C(=O)Nc2cnc3c(c([C@@H]4CCN(C(=O)[C@H](C)C(F)(F)F)[C@@H](C)C4)cn3C)c2C)cc1C#N` [Example 93, 3-cyano-N-(1,4-dimethyl-3-((2S,4R)-2-methyl-1-((S)-3,3,3-trifluoro-2-methylpropanoyl)piperidin-4-yl)-1H-pyrrolo[2,3-b]pyridin-5-yl)-4-methoxybenzamide], the IC50 was found to be 0.0134 µM.

Turning to `COc1ccc(C(=O)Nc2cnc3c(c([C@@H]4CCN(C(=O)[C@@H](C)C(F)(F)F)[C@@H](C)C4)cn3C)c2C)cc1C#N` [Example 94, 3-cyano-N-(1,4-dimethyl-3-((2S,4R)-2-methyl-1-((R)-3,3,3-trifluoro-2-methylpropanoyl)piperidin-4-yl)-1H-pyrrolo[2,3-b]pyridin-5-yl)-4-methoxybenzamide], the half-maximal inhibitory concentration (IC50) came to 0.0228 µM.

In turn, `CC(C)C(=O)N1CC[C@@H](c2cn(C)c3ncc(NC(=O)c4cccc(C#N)c4)c(C(F)(F)F)c23)C[C@@H]1C` [Example 95, 3-cyano-N-(3-((2S,4R)-1-isobutyryl-2-methylpiperidin-4-yl)-1-methyl-4-(trifluoromethyl)-1H-pyrrolo[2,3-b]pyridin-5-yl)benzamide] had an IC50 of 0.0057 µM.

`Cc1c(NC(=O)c2cccc(C#N)c2)cnc2c1c(C1CCN(C(=O)C(C)C)C3(CC3)C1)cn2C` (centres unmarked) [Example 96, 3-cyano-N-(3-(4-isobutyryl-4-azaspiro[2.5]octan-7-yl)-1,4-dimethyl-1H-pyrrolo[2,3-b]pyridin-5-yl)benzamide] had an IC50 of 0.046 µM.

`COc1ccc(C(=O)Nc2cnc3c(c([C@@H]4CCN(C(=O)C(C)C)C[C@@H]4C)cn3C)c2C)cc1C#N` [Example 112, 3-cyano-N-(3-((3R,4R)-1-isobutyryl-3-methylpiperidin-4-yl)-1,4-dimethyl-1H-pyrrolo[2,3-b]pyridin-5-yl)-4-methoxybenzamide] came in with an IC50 of 0.036 µM.
